S100A4 MyoIIA: inhibitors of human S100A4 binding to myosin IIA peptide; P26447; S100A4/TAMRA-MyoIIA peptide fluorescence polarization; inhibition, % at 10.7 µM; actives 0.14% (n = 360,000); AID 652163;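 active = mean inhibition of at least 70% across replicates, with every replicate also reaching that level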
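Test system: S100A4 monomer protein. Medium: HEPES buffer with Ca2+, pH 7.2. Reagent: fluorescent myosin IIA peptide, 5 nM. Compound dosing: single-point compound testing. Timing: 5 min between mix addition and reading. Benchmarks: DMSO neutral and TFP positive wells.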
UUG fidelity: alters start codon recognition fidelity in yeast | S. cerevisiae UUG-firefly luciferase reporter, luminescence/redox ratio | activity score, % at 18.7 µM | 350,000 compounds, 0.13% hits | AID 602363;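 active = replicate mean at a twofold rise or more, about +100% in these data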;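 note: firefly luciferase made from a UUG start codon reports start codon fidelity; reporter light over untreated wells divided by growth signal over untreated wells; some hits fall short of that in this replicate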
ERAP1 HTS inh: ERAP1 (human) enzyme inhibition. recombinant ERAP1, Leu-AMC fluorescence, 60 min. inhibition, % at 10.7 µM. actives 0.15% (n = 340,000);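 active = mean replicate inhibition of at least 30%, or all replicates individually reaching that 30% level; inactive = mean below 30% and not every replicate reaching it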
E-selectin induc: E-selectin induction on HUVECs; P16581; HUVEC E-selectin immunofluorescence imaging; normalized: neutral wells 0, TNF-alpha wells 100; activation, % at 7.58 µM; actives 0.37% (n = 260,000); AID 686992;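 active = mean E-selectin-positive cell signal at least 10% of the positive control, reached in at least 60% of replicates, without over 20% cell loss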
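assay system = HUVEC, human umbilical vein endothelial cells | input = 3,000 HUVEC seeded per well | medium = EGM-2 growth medium on 0.1% gelatin-coated wells | dosing = one compound dose added by pin transfer | signal = immunofluorescence imaging | read-out basis = % PE-positive cells | control set = TNF-alpha, DMSO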
ARNT TACC3 PPI: ARNT/TACC3 interaction disruption; Q9Y6A5; AlphaScreen His-ARNT PAS-B/GST-TACC3 binding, luminescence; TACC3 fragment carries E629A point mutation; inhibition, % at 9.99 µM; actives 0.66% (n = 390,000);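 active = mean inhibition of replicates at least 50% and at least half of replicates each reaching 50%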
MLL AF4-AF9 inh: MLL-AF4/AF9 protein interaction inhibition; P42568; actives 0.47% (n = 350,000); AlphaScreen, biotin-AF4 peptide binding to FLAG-AF9; inhibition, % at 10 µM; AID 651704;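 active = every replicate reaching a set inhibition limit, whatever the replicate mean, cut at about 25% in these data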
ARNT Alpha ctr-1: interferes with AlphaScreen signal, flagging false ARNT-TACC3 hits. shares compounds with ARNT TACC3 PPI. His-ARNT PASB-GST AlphaScreen artifact counter-screen, luminescence. AC50, µM (top dose mostly 68 µM). actives 50% (n = 1,200). AID 651705;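 active = every separate test run was called active for a drop in luminescence, with AC50 within twice the top valid dose, actives reach about 71 µM in these data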
ARNT Alpha ctr-2: produces AlphaScreen artifacts in ARNT-TACC3 counter-screen; Dual-tagged His-ARNT PASB-GST AlphaScreen artifact counter-screen; shares compounds with ARNT TACC3 PPI; AID 720564; actives 70% (n = 45); AC50, µM;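 active = luminescence drop, with half-maximal potency fitted within twice the sample's top valid dose, cut at about 70 µM in these data; inactive = the rest, including signal moving the wrong way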
Hits are given with their value; 0 = inactive; - = no result given. The list is not random: actives were taken first. Their share in the collection is about 1.3%.

SMILES | S100A4 MyoIIA | UUG fidelity | ERAP1 HTS inh | E-selectin induc | ARNT TACC3 PPI | MLL AF4-AF9 inh | ARNT Alpha ctr-1 | others
Cc1ccc(OCc2nc(-c3ccccn3)no2)cc1 | 0 | 0 | 0 | - | 0 | 0 | -
Clc1ccc(OCc2nc(-c3ccccn3)n[nH]2)cc1 | - | 0 | - | - | 66 | - | 28µM
Brc1ccc(OCc2nc(-c3ccccn3)n[nH]2)cc1 | - | 0 | - | - | 58 | - | 22µM
N#C[C@H]1[C@@H](c2ccccc2-c2ccccc2F)[C@H](CO)N1C(=O)c1cccc(F)c1 | 0 | - | 0 | 0 | - | 0 | -
O=C(N[C@H]1CC[C@@H](CCn2cc(-c3ccccn3)nn2)O[C@@H]1CO)c1ccncc1 | 0 | 0 | 0 | 0 | 66 | 0 | 31µM
O=C(N[C@H]1CC[C@H](CCn2cc(-c3ccccn3)nn2)O[C@H]1CO)c1ccncc1 | 0 | 0 | 0 | 0 | 66 | 0 | 39µM
O=C(N[C@H]1CC[C@H](CCn2cc(-c3ccccn3)nn2)O[C@@H]1CO)c1ccncc1 | 0 | 0 | 0 | 0 | 65 | 0 | 48µM
O=C(N[C@@H]1CC[C@@H](CCn2cc(-c3ccccn3)nn2)O[C@@H]1CO)c1ccncc1 | 0 | 0 | 0 | 0 | 77 | 0 | 38µM
CCO[C@@H]1OC(C(=O)N2CCN(C)CC2)=C[C@H](c2ccccc2)[C@H]1CCCO | 0 | 0 | 0 | - | 0 | 0 | -
C[C@H](NC(=O)[C@H]1[C@H](CO)[C@H]2Cn3c(cccc3=O)[C@H]2N1CC1CCCCC1)c1ccccc1 | 0 | - | 0 | 0 | - | 0 | -
CCCNC(=O)N1C[C@H](C)[C@@H](OC)CN(C)C(=O)c2ccc(NC(C)=O)cc2OC[C@@H]1C | 0 | - | 0 | - | - | 0 | -
C[C@@H]1CCCCO[C@H](CN(C)C(=O)NC2CCCCC2)[C@@H](C)CN([C@H](C)CO)C(=O)c2cc(NC(=O)c3ccncc3)ccc2O1 | 0 | 0 | 0 | 0 | 0 | 0 | -
O=C(COC(=O)c1ccc([N+](=O)[O-])s1)NCCc1ccccc1 | 0 | 0 | 0 | - | 50 | - | 0
CCCNC(=O)Nc1ccc2c(c1)OC[C@@H](C)N(C(=O)C1CCCC1)C[C@@H](C)[C@H](OC)CN(C)C2=O | - | - | - | 0 | - | - | -
COc1ccc(OC(C)C(=O)Nc2ccc([N+](=O)[O-])cc2)cc1 (stereo not drawn) | 0 | 0 | 0 | 0 | 0 | 0 | -
C/C(=N\NC(=O)C(C)Oc1ccc([N+](=O)[O-])cc1)c1ccccn1 (stereo not drawn) | - | - | - | - | 54 | - | 34µM
Cc1[nH]n(-c2ccccc2)c(=O)c1/C=N/N(c1ccccc1)c1ccccc1 | 0 | - | 0 | - | 55 | 0 | 23µM
Cc1cc(=O)[nH]c(-n2ncc(C#N)c2N)n1 | 0 | 0 | 0 | - | 56 | 0 | 0
N#Cc1cnn(-c2ccccc2)c1N | - | 0 | - | - | 0 | - | -
CCc1c(C)nc(Nc2nc(C)c3ccc(OC)cc3n2)[nH]c1=O | 0 | 0 | 0 | - | 51 | 0 | 0
CCc1c(C)nc(Nc2nc(C)c3cc(OC)ccc3n2)[nH]c1=O | - | 0 | - | - | 0 | - | -
CC(=O)N1[C@H](CO)[C@H](c2ccccc2)C12CN(C(=O)c1ccccc1)C2 | 0 | - | 0 | 0 | - | 0 | -
O=C(CSc1n[nH]c(-c2ccccn2)n1)Nc1ccccc1 | 0 | 0 | 0 | 0 | 62 | 0 | 7.7µM
COc1ccccc1NC(=O)CSc1n[nH]c(-c2ccco2)n1 | 0 | 0 | 0 | - | 0 | 0 | -
COc1ccccc1NC(=O)CSc1n[nH]c(-c2ccccn2)n1 | 0 | - | 0 | 0 | 61 | 0 | 11µM
SMILES | S100A4 MyoIIA | UUG fidelity | ERAP1 HTS inh | E-selectin induc | ARNT TACC3 PPI | MLL AF4-AF9 inh | ARNT Alpha ctr-1 | others
COc1ccc(NC(=O)CSc2n[nH]c(-c3ccccn3)n2)cc1 | 0 | 0 | 0 | 0 | 58 | 0 | 6.9µM
CCCN1C[C@@H](C)[C@H](OC)CN(C)C(=O)c2cc(NC(=O)c3ccccc3F)ccc2OC[C@H]1C | 0 | 0 | 0 | 0 | 0 | 0 | -
C[C@@H]1CN([C@@H](C)CO)C(=O)c2cc(NC(=O)Cc3ccccc3)ccc2O[C@@H](C)CCCCO[C@H]1CN(C)S(=O)(=O)c1cccs1 | - | 0 | - | 0 | 0 | - | -
Cc1cc(F)ccc1NS(=O)(=O)c1cccc2nsnc12 | 0 | 0 | 0 | - | active | 0 | 0
O=S(=O)(Nc1cccc(F)c1)c1cccc2nsnc12 | 0 | 0 | 0 | 0 | 0 | 0 | -
CC=Cc1ccc2n(c1=O)C[C@@H]1[C@@H](CO)[C@H](C(=O)NC3CCC3)[C@H]2N1S(=O)(=O)c1cn(C)cn1 (mixture of isomers) | 0 | - | 0 | 0 | 0 | 0 | -
CC=Cc1ccc2n(c1=O)C[C@H]1[C@H](CO)[C@@H](C(=O)NC3CCC3)[C@@H]2N1S(=O)(=O)c1cn(C)cn1 (mixture of isomers) | 0 | - | 0 | 0 | active | 0 | 0
CC1=NN(c2ccccc2C)C(=O)C1 | 0 | 0 | 0 | 0 | active | 0 | 0
COCC(=O)NC[C@H]1[C@@H](c2ccc(C3=CCCC3)cc2)[C@H](CO)N1C(=O)C1CC1 | 0 | 0 | 0 | 0 | 0 | 0 | -
Cc1ccc(S(=O)(=O)CCc2nnc(NC(=O)c3cnccn3)s2)cc1 | - | 0 | - | - | 0 | - | -
Cc1ccc(S(=O)(=O)CCc2nnc(NC(=O)c3ccccc3)s2)cc1 | - | - | - | - | - | - | - | ARNT Alpha ctr-2=0
Cc1ccc(S(=O)(=O)CCc2nnc(NC(=O)c3ccccn3)s2)cc1 | - | 0 | - | - | 73 | - | 34µM
O=C(NC1Cc2ccccc2C1)[C@H]1N[C@H]2c3cccc(=O)n3C[C@H]2[C@@H]1CO | 0 | - | 0 | 0 | active | 0 | 0
COc1cccc(CNC(=O)COC(=O)c2ccc(C(=O)c3ccccc3)cc2)c1 | 0 | 0 | 0 | 0 | 55 | 0 | 0
COc1cccc(CNC(=O)COC(=O)c2ccc(-c3ccc(O)cc3)cc2)c1 | 0 | 0 | 0 | 0 | - | 0 | -
Cc1cc(C)n2nc(-c3cccc(Br)c3)cc2n1 | 0 | 0 | 0 | - | 51 | 0 | 0
Cc1cccc(-c2cc3nc(C)cc(C)n3n2)c1 | 0 | - | 0 | - | - | 0 | -
COCC(=O)N(C)C[C@@H]1Oc2cc(C3=CCCC3)ccc2S(=O)(=O)N([C@@H](C)CO)C[C@@H]1C | 0 | 0 | 0 | 0 | 0 | 0 | -
CCOc1cccc(/C=N/NC(=O)c2cc(-c3cccn3C)n[nH]2)c1O | 0 | - | 0 | - | 51 | 0 | 0
COc1ccccc1NC(=O)N[C@@H]1CC[C@H](CC(=O)N[C@H](C)c2ccccc2)O[C@H]1CO | 0 | 0 | 0 | 0 | 0 | 0 | -
Cc1ccc(S(=O)(=O)N(C)C[C@H]2Oc3c(NC(=O)C4CC4)cccc3C(=O)N([C@H](C)CO)C[C@@H]2C)cc1 | 0 | 0 | 0 | 0 | 0 | 0 | -
C[C@@H](C(=O)Nc1nc(-c2ccccn2)cs1)N1C(=O)C2CCCCC2C1=O (stereo partly drawn) | - | 0 | - | - | 63 | - | 21µM
